The text below walks through data of patent US8703750B2, “Mixtures and methods for the induction of resistance in plants” (priority 2004, dated 2014).

In the series the test system is cultivar Merlot vines. Nature of the series: Undesired effects (necrosis or leaf decolouring) on vines in the Plasmopara viticola greenhouse test. The following applies: in vivo.

For silicic acid, the “Undesired Effects” value turned out to be 0.

Regarding FeNH4SO4, the “Undesired Effects” value stood at 0.
